# Ab-14 light chain CDR variants: yeast mating affinities

The measurements come from Engelhart et al. 2022 (doi:10.1038/s41597-022-01779-4) through the FLAb antibody collection.

Target: peptide PDVDLGDISGINAS, taken from heptad repeat 2 (HR2) of SARS-CoV-2 spike.

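The starting antibody came from a phage panning campaign against this peptide. Variants in AAYL50 differ from the parent at up to three CDR positions; double and triple changes were sampled at random. The assay is AlphaSeq: two haploid yeast populations carry antibody and antigen on their surface. Mating (16 h, 30 °C) was followed by selection of diploids and sequencing of their barcodes. Read counts were normalised to the haploid input and turned into Kd by a linear fit to BCL2-family pairs of known affinity, for each replicate. There are three technical replicates.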

Each scFv is VH, three GGGGS repeats, VL, as in the parent Ab-14, and differs from it in the CDRs of the light chain only.
VH: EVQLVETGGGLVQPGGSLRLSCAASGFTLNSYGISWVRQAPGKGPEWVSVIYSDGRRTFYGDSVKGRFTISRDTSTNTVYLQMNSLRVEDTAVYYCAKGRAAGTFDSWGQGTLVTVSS
VL: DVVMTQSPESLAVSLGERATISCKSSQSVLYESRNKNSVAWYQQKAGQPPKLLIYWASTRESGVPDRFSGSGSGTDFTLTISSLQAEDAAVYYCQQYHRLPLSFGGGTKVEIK

Positions count from residue 1 of the parent VL; Y31S puts S in place of Y.
Values are apparent Kd, the geometric mean of the replicates that gave a signal; lower means stronger binding.
A pair that was not seen in any replicate is written "not detected"; this usually means weak binding, but a binder can also be missed.

| Kd (apparent) | replicates with signal | signal with controls | changes |
|---|---|---|---|
| 14 nM | 3/3 | 1/9 | Y31S Q96Y S103K |
| 130 nM | 3/3 | 1/9 | Y31M E32F E61A |
| 90 nM | 3/3 | 1/9 | S28H N37H S103N |
| 27 nM | 3/3 | 1/9 | Y31D S33A S62Y |
| 24 µM | 3/3 | 1/9 | S26H N35S R60P |
| not detected | 0/3 | 0/9 | S25A A40N |
| not detected | 0/3 | 0/9 | V39P A57S R60S |
| 85 µM | 1/3 | 0/9 | S28K L30C A40M |
| not detected | 0/3 | 0/9 | R34P Q96E P101L |
| 2.5 nM | 3/3 | 1/9 | S26M V29S R34A |
| 480 nM | 3/3 | 1/9 | N35H R99T S103G |
| 2.5 µM | 2/3 | 6/9 | S25A E32R A57I |
| 3.6 nM | 3/3 | 1/9 | Q27D S28G Y97M |
| 160 nM | 3/3 | 1/9 | W56C E61H S62H |
| 2.4 nM | 3/3 | 0/9 | R34E E61P Y97P |
| not detected | 0/3 | 0/9 | K24D S58M Q95A |
| 84 µM | 2/3 | 3/9 | N37I S38F S62K |
| 690 pM | 3/3 | 0/9 | S38Q W56R H98F |
| not detected | 0/3 | 0/9 | S26M S28E R60T |
| 320 nM | 1/3 | 0/9 | S26N W56G L100G |
| 510 nM | 3/3 | 5/9 | L30I S58F |
| 59 µM | 3/3 | 4/9 | N37W H98C L100A |
| not detected | 0/3 | 0/9 | N37I R60A H98P |
| 2.3 nM | 3/3 | 4/9 | R34V N37S S103E |
| 190 nM | 3/3 | 2/9 | A57L S62Y H98W |
| 39 nM | 3/3 | 2/9 | E32N S33G P101S |
| 120 nM | 3/3 | 3/9 | K24T T59H |
| 3.5 nM | 3/3 | 1/9 | K24S W56Q T59R |
| not detected | 0/3 | 1/9 | N35E K36W Y97K |
| 79 µM | 2/3 | 2/9 | S58L S62E Q96I |
| 66 µM | 1/3 | 2/9 | S25R Q27V S33R |
| 2.1 µM | 1/3 | 0/9 | R34G Q95C Q96A |
| not detected | 0/3 | 0/9 | E32R N37I R99G |
| 53 nM | 3/3 | 2/9 | K24A Q95E L102T |
| 110 µM | 1/3 | 3/9 | S58I R60E Q96W |
| 20 µM | 2/3 | 0/9 | S26C E32Y S58V |
| 140 nM | 3/3 | 0/9 | L30N E32V N35V |
| 9.9 nM | 3/3 | 0/9 | W56A S58T H98N |
| 4.6 µM | 1/3 | 0/9 | L30K R34C |
| 1.0 µM | 1/3 | 0/9 | S25A P101V |
| 34 nM | 3/3 | 3/9 | Q95R H98G |
| 690 nM | 3/3 | 0/9 | L30Y Q96R L102Y |
| 60 µM | 2/3 | 4/9 | K36V T59R L102M |
| 33 nM | 3/3 | 2/9 | L30V E32T E61M |
| not detected | 0/3 | 1/9 | K24T S33I W56F |
| 2.6 µM | 2/3 | 6/9 | N37E A40M Q96Y |
| not detected | 0/3 | 2/9 | Q27F V39D T59F |
| not detected | 0/3 | 5/9 | S28K S33V S38F |
| 120 nM | 3/3 | 6/9 | N37A Q95L |
| 26 µM | 3/3 | 5/9 | A40P E61C Q95W |
| 680 nM | 1/3 | 0/9 | S26V Y31R S33K |
| not detected | 0/3 | 2/9 | K24Y T59H Q96I |
| not detected | 0/3 | 0/9 | N35W L100R |
| 5.6 nM | 3/3 | 0/9 | Q96M L100A L102M |
| 230 nM | 3/3 | 0/9 | S28H Y31V |
| 50 nM | 3/3 | 0/9 | E32W K36N T59Q |
| not detected | 0/3 | 0/9 | Q27T L30W P101C |
| 2.6 µM | 2/3 | 0/9 | N35G A57Q S62N |
| not detected | 0/3 | 1/9 | L30F A40S L100C |
| 15 µM | 1/3 | 3/9 | Q27W S33E V39E |
| not detected | 0/3 | 0/9 | S28T Y31R E32Y |
| 3.0 µM | 2/3 | 1/9 | Q96D H98K R99T |
| 17 nM | 3/3 | 1/9 | S25Y L30P N37C |
| 6.3 µM | 2/3 | 1/9 | Q27I H98P |
| not detected | 0/3 | 0/9 | Q27Y S33A R60G |
| 3.3 µM | 1/3 | 2/9 | S25I Y97D S103K |
| not detected | 0/3 | 0/9 | A40M A57Y R60T |
| 230 nM | 3/3 | 1/9 | Q27T V29A E32K |
| not detected | 0/3 | 0/9 | S33H T59N Y97Q |
| 9.6 µM | 1/3 | 1/9 | Q27I Y97I L102I |
| not detected | 0/3 | 1/9 | S33F N35A A40D |
| not detected | 0/3 | 1/9 | V29I L100D |
| 2.0 µM | 2/3 | 2/9 | S26T T59W Y97D |
| not detected | 0/3 | 0/9 | N37L A57F Q95V |
| 7.7 nM | 3/3 | 1/9 | N35A W56N R99Y |
| not detected | 0/3 | 0/9 | S58Q R99E L100D |

From the list, the first 10 with no signal in any replicate:

| changes | Kd (apparent) | replicates with signal | signal with controls |
|---|---|---|---|
| S25A A40N | not detected | 0/3 | 0/9 |
| V39P A57S R60S | not detected | 0/3 | 0/9 |
| R34P Q96E P101L | not detected | 0/3 | 0/9 |
| K24D S58M Q95A | not detected | 0/3 | 0/9 |
| S26M S28E R60T | not detected | 0/3 | 0/9 |
| N37I R60A H98P | not detected | 0/3 | 0/9 |
| N35E K36W Y97K | not detected | 0/3 | 1/9 |
| E32R N37I R99G | not detected | 0/3 | 0/9 |
| K24T S33I W56F | not detected | 0/3 | 1/9 |
| Q27F V39D T59F | not detected | 0/3 | 2/9 |

Parent in this assay: reference entry 4.4 nM, copy in this library 48 nM.
Nonspecific signal, from three strains lacking the peptide, appeared in 18% of pairings of library AAYL50, centred on 15 µM (5% of these signals below 970 nM); values are not corrected for it. Also given: how often the same scFv was detected with the empty control strains.